The results in this text go back to US12410141B2, “Anti-cancer spirocyclic-guanidine compounds and uses thereof” (The Johns Hopkins University, priority 2020, dated 2025).

Chains of the proteins cited; added tags and fusions are not shown. Lines headed by an entry give the natural chain unless they say otherwise; changes in a name come on top.
UniProt Q16186: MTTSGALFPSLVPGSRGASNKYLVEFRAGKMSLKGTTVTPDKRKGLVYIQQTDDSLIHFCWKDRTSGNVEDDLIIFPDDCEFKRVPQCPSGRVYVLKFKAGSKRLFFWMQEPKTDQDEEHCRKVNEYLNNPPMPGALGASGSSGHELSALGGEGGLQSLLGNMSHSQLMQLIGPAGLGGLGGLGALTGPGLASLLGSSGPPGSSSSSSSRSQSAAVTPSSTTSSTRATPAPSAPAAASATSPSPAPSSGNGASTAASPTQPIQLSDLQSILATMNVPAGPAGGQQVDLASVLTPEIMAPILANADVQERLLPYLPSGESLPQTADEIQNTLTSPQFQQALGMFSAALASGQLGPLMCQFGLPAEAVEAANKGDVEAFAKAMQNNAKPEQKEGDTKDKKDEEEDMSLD

In the assay the target is T1, 42 kDa cellular protein previously identified as RPN13 (Homo sapiens, UniProt Q16186).
T1 construct: endogenous in cells; host or cells: ES2 cell lysate (clarified, in MPER buffer)
Put plainly: Labeling of ES2 cell lysate with biotinylated probes. The following applies: 45 min at 4° C., streptavidin-HRP. In kind it is binding. Here is the method: ES2 cell lysates were incubated with 20 μM RA190B for 45 min at 4° C., and then separated by SDS-PAGE, transferred to a PVDF membrane.
The lysates were then separated by SDS-PAGE, transferred to a PVDF membrane.

Consider `O=C(O)CCCC[C@@H]1SC[C@@H]2NC(=O)N[C@@H]21` [Up284B], for which the “binding of biotinylated probe to the 42 kDa cellular protein” value is “bound to the same size 42 kDa cellular protein more avidly than RA190B”.
